The values that follow come from PubChem BioAssay AID720551 (National Center for Advancing Translational Sciences (NCATS), 2013).

By UniProt entry, the sequences of proteins in these tests, tags left out.
UniProt Q12809, whole entry: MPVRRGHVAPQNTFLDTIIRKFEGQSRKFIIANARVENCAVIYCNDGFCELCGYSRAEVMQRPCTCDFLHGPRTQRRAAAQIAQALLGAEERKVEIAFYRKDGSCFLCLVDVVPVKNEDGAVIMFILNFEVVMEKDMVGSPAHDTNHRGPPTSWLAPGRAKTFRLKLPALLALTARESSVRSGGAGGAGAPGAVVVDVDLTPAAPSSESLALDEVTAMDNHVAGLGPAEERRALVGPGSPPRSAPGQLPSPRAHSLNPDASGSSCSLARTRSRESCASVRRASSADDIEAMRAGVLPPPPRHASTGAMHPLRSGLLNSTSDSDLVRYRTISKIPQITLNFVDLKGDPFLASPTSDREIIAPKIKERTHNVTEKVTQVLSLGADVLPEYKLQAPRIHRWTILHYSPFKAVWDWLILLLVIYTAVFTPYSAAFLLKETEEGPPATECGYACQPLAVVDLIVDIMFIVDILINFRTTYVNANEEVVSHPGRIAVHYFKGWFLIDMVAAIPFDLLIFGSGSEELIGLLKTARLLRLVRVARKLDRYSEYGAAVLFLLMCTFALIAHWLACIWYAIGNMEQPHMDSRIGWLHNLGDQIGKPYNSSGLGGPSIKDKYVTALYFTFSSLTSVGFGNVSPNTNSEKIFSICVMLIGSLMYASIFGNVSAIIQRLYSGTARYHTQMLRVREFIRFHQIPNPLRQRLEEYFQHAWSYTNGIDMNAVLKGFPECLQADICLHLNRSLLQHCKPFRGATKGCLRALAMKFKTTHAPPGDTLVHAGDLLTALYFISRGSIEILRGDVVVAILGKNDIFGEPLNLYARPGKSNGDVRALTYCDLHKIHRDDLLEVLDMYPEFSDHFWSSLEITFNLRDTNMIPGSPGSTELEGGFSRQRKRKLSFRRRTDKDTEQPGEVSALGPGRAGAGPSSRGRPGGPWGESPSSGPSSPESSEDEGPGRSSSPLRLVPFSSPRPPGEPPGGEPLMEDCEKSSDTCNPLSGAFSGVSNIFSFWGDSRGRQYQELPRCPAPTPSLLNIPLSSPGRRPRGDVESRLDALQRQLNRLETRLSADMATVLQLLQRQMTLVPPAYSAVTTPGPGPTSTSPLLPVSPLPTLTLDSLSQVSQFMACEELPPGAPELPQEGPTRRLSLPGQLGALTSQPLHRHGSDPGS

The entries are a selection whose mix differs from that of the whole data set. Some tests of the compounds listed are not included; inactive here does not mean inactive elsewhere. Active and inactive are the calls of the source.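 How the source made its calls: active means maximum activity change below -70%; inconclusive means maximum activity change between -70% and -50%; inactive means maximum activity change above -50%.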
On the % scale 0 is the no-effect control and ±100 the full control effect.

In this assay the target is Voltage-gated inwardly rectifying potassium channel KCNH2 (Homo sapiens) (UniProt Q12809). As to the kind of experiment: qHTS for Inhibitors of KCHN2 3.1: Wildtype qHTS. Conditions: U2OS, BacMam KCNH2, thallium flux FluxOr; at 1.84 µM; hits give low values. The text has this: Many antipsychotic drugs that inhibit the neurotransmitter dopamine also bind to hERG1 channel which might help explain their antipsychotic activity but also produces cardiac side effects. The discovery of the novel KCNH2 3.1 isoform offers a potential new target for the development of antipsychotic drugs without cardiac side effects. This proposal will use a high throughput thallium flux assay developed for KCNH2 to screen compounds that modulate the activity of KCNH2 3.1. The wild type KCNH2 channel will also be screened in parallel to help define the selective modulators of this KCNH2 3.1 potassium channel. The resulting compounds will be validated in electrophysiology experiments. The availability of animal models will allow future testing in vivo for effects on memory and other aspects of animal physiology linked with psychosis. NIH Chemical Genomics Center [NCGC] NIH Molecular Libraries Probe Centers Network [MLPCN] MLPCN Grant: MH096539 Assay Submitter (PI): James Barrow, Johns Hopkins University, Lieber Institute for Brain Development
U2OS cells were resuspended in cell media containing 10% fetal calf serum (FCS) at a concentration of 2 million cells / mL. The solution was treated with the Wild-type virus at 2.03 x 10^8 / mL and allowed to incubate at room temperature in the dark. After 4 hours of incubation, DMEM + 10% fetal bovine serum (FBS) was added to the cell solution. Three microliter was then dispensed into a 1536 tissue culture treated black assay plates which were incubated overnight at 37 C. Two microliter of loading buffer (HBSS + HEPES + Red40 dye quencher + FluxOr dye) was added and the assay plates were incubated for 45 min at room temperature in the dark. […] A stimulation buffer was added to the plate and the second kinetic read (2 min) was obtained. The rate constant was calculated from the kinetic reads and normalized to the positive and negative DMSO controls.
For orientation: In qHTS, concentration-response curves come from the screen itself.
For the compound `COc1ccc(Cl)cc1C(=O)NCC1(N(C)C)CCCCC1`, the activity change was inactive: 20.9%. Then `COc1cccc(C(=O)NCC2(N3CCCCC3)CCCCC2)c1`, with inactive: 6.74%; and `O=C(NCC1(N2CCCCC2)CCCCC1)c1cccc(Cl)c1`, with inactive: 25.6%; and `CN(C)C1(CNC(=O)c2ccc(Br)cc2)CCCCC1`, with inactive: 39.2%.

On to `COc1cc(C(=O)NCC2(N(C)C)CCCCC2)c([N+](=O)[O-])cc1OC`, for which the activity change was inactive: 4.24%. For `C=C(C)C#CC(O)(C(=O)OC1CCN(C)CC1)c1ccccc1` (stereo unspecified), the activity change was inactive: 10%. Next, `COc1ccc(Br)c(C(=O)NCC2(N3CCCCC3)CCCCC2)c1`: inactive: -7.56%.

For the compound `O=C(OCCN1CCCC1)C(O)(c1ccccc1)c1ccccc1`, the activity change was inactive: 6.28%. Next, `CC(C)Oc1ccc(C(=O)NCC2(N(C)C)CCCCC2)cc1`: inactive: 27.4%; `CN(C)c1cccc(C(=O)NCC2(N(C)C)CCCCC2)c1`: inactive: -16.8%. Then `O=C(OC1CN2CCC1CC2)C(CO)(c1ccccc1)c1ccccc1` (stereo unspecified), with inactive: 2.56%; and `COc1cc(SC)ccc1C(=O)NCC1(N(C)C)CCCCC1`, with inactive: 2.15%; and `CCN(CC)CC(C)C(C)OC(=O)C(O)(c1ccccc1)c1ccccc1` (stereo unspecified), with inactive: 8.72%. Next, `CC(C)N1C(=O)CC2(CCN(CCOC(=O)C(O)(c3ccccc3)c3ccccc3)CC2)C1=O`: inactive: 4.66%; `Cc1ccc(C(=O)NCC2(N3CCCCC3)CCCCC2)cc1`: inactive: 5.3%.

On to `O=C(NCC1(N2CCCCC2)CCCCC1)c1cc([N+](=O)[O-])ccc1Cl`, for which the activity change is inactive: -0.608%. Then `CN1[C@@H]2CC[C@H]1CC(OC(=O)C(O)(c1ccccc1)c1ccccc1)C2` (stereo partly specified), with inactive: 12.1%; and `O=C(NCC1(N2CCCCC2)CCCCC1)c1cc(F)c(F)cc1Cl`, with inactive: 6.51%; and `C=CCN1CCN(CCOC(=O)C(O)(c2ccccc2)c2ccccc2)CC1`, with inactive: 1.47%. Next, `COc1ccc(C(=O)NCC2(N(C)C)CCCCC2)cc1`: inactive: 4.33%; `O=C(NCC1(N2CCCCC2)CCCCC1)c1cccc(Br)c1`: inactive: 1.42%; `Cc1cc(C(=O)NCC2(N3CCCCC3)CCCCC2)ccc1[N+](=O)[O-]`: inactive: 2.06%. Next, `CCN1CCCC(OC(=O)C2(O)c3ccccc3C=Cc3ccccc32)C1` (stereo unspecified): inactive: 27.8%; `CN(C)C1CCCC1OC(=O)C(O)(c1ccccc1)c1ccccc1` (stereo unspecified): inactive: 10.1%; `CN(C)c1ccc(C(=O)NCC2(N(C)C)CCCCC2)cc1`: inactive: -8.87%. For `Cc1ccccc1C(=O)NCC1(N2CCCCC2)CCCCC1`, the activity change was inactive: 13.7%.
